From ChEMBL document CHEMBL4190188, “Neuroprotective Activity of Cerebrosides from Typhonium giganteum by Regulating Caspase-3 and Bax/Bcl-2 Signaling Pathways in PC12 Cells” (J Nat Prod, 2017)

System: PC-12
Assay: Neuroprotective activity against 12.5 mM glutamate-induced toxicity in rat PC12 cells assessed as cell viability after 24 hrs by MTT assay
Format: functional, cell-based

In the case of CCCCCCCCC/C=C\CC/C=C/[C@@H](O)[C@H](CO[C@@H]1O[C@H](CO)[C@@H](O)[C@H](O)[C@H]1O)NC(=O)[C@H](O)CCCCCCCCCCCCCCCCCCCCCC, the Activity is reported as “Dose-dependent effect”.
